Measured values as given in PubChem BioAssay AID504937 (National Center for Advancing Translational Sciences (NCATS), 2011).
This is a selection; strong and weak results do not stand in their true shares. The source made the active and inactive calls. Calls come from the whole dose curve; as a rule, active = well fitted inhibition curve with a large enough effect; inconclusive = small, poorly fitted or top-dose-only effect; inactive = no such curve, though single readings can be large or run the other way.

By UniProt entry, the sequences of proteins in these tests, tags left out. Where a name states a change or a piece, a line headed by the entry shows the natural chain unless it says otherwise.
UniProt P17405: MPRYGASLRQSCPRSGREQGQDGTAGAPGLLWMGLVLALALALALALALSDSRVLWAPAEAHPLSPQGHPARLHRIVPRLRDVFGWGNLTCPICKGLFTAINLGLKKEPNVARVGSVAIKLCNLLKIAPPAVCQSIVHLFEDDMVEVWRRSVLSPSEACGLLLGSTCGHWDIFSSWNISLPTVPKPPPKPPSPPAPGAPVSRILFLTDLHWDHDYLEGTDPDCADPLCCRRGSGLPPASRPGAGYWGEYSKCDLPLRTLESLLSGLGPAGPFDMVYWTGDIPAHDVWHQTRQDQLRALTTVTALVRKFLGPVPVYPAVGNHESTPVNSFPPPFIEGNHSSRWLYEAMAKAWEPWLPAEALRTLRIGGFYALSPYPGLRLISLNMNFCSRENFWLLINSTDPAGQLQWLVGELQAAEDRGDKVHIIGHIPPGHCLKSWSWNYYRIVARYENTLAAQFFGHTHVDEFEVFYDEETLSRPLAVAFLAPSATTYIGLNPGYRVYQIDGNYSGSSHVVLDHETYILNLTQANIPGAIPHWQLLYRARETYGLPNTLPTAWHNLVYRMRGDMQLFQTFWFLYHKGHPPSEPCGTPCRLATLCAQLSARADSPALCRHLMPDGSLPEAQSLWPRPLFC

What follows are molecules tested against Sphingomyelin phosphodiesterase (Homo sapiens) (UniProt P17405) (assay: Inhibitors of Secretory Acid Sphingomyelinase (S-ASM): qHTS). Details: placental ASM, HMU-PC fluorogenic substrate (series up to 57.5 µM), 60 min; at 57.5 µM (top of the series).

Structure (SMILES)	activity change, negative = inhibition
CS(=O)(=O)c1cc([N+](=O)[O-])c2no[n+]([O-])c2c1	inactive: -1.87%
O=P(Nc1nccs1)(Oc1ccccc1)Oc1ccccc1	inactive: -2.19%
O=P(Nc1nccs1)(c1ccccc1)c1nc2ccccc2s1 (stereo unspecified)	inactive: -9.02%
CCOP1(=S)c2c(C)nn(CCC#N)c2N=C(c2ccccc2F)N1C (stereo unspecified)	inactive: 6.84%
O=C(O)COc1ccc([As](=O)(O)O)cc1[N+](=O)[O-]	inactive: -2.1%
Nc1ccccc1[As](=O)(O)c1ccccc1	inactive: 1.22%
NC(=O)Nc1ccc([As](=O)(O)O)cc1	inactive: -4.6%
CN(C(=O)Cc1ccc(Cl)c(Cl)c1)[C@H]1CC[C@@]2(CCCO2)C[C@@H]1N1CCCC1	inactive: 0.529%
O=[N+]([O-])c1ccc2c(c1)nnn2O	inactive: -1.02%
CN(C)C(=O)c1cc([N+](=O)[O-])cc2c1-c1c(cc([N+](=O)[O-])cc1[N+](=O)[O-])C2=O	inactive: -2.06%
CN(C(=O)Cc1ccccc1)[C@@H]1CC[C@]2(CCCO2)C[C@H]1N1CCCC1	inactive: -0.526%
CCOP1(=S)c2c(C)nn(CCC#N)c2N=C(c2ccc(F)cc2)N1C (stereo unspecified)	inactive: 3.1%
N#CCCN(C(=O)COC(=O)C(O)(c1ccccc1)c1ccccc1)c1ccc(F)cc1	inactive: 8.15%
CS(=O)(=O)c1ccc(Cl)c(NC(=O)COC(=O)C(O)(c2ccccc2)c2ccccc2)c1	inactive: -7.57%
O=[As](O)(O)c1cccnc1	inactive: -3.35%
COc1cc(C(=O)NCC2(N3CCOCC3)CCCCC2)cc(Cl)c1OC(C)C	inactive: 2.77%
O=C(OC1CN2CCC1CC2)c1ccc(Cl)cc1 (stereo unspecified)	inactive: 0.0308%
Cc1cccc(OCC(=O)OC2CN3CCC2CC3)c1 (stereo unspecified)	inactive: 1.86%
O=[As](O)(c1cccc(O)c1)c1cccc(O)c1	inactive: -2.1%
CCCOP(=S)(Nc1nc(N)cc(=O)[nH]1)OCCC	inactive: 0.725%
Cc1ccc(NCCc2c([N+](=O)[O-])cc([N+](=O)[O-])cc2[N+](=O)[O-])cc1	inactive: 0.0272%
CCOP(=O)(Nc1cccc2ccccc12)OCC	inactive: 2.36%
COc1cc(C2NCCC3(OCCO3)C2(C)C)cc(OC)c1OC (stereo unspecified)	inactive: 2.09%
CCOP(=O)(Nc1ccc(C)cn1)OCC	inactive: 0.499%
CN(CCCl)Cc1cc(Cl)c(NC2=NCCN2)c(Cl)c1	inactive: -5.82%
CCOP(=O)(NC(=NC(C)c1ccccc1)NC(C)c1ccccc1)OCC (stereo unspecified)	inactive: -0.978%

Structure (SMILES)	activity change, negative = inhibition
CCC1=CC2Cc3nc4ccc(Cl)cc4c(N)c3C(C1)C2 (stereo unspecified)	inactive: -4.83%
O=P1(Nc2ccccn2)COc2ccccc2OC1	inactive: -2.5%
CC(C)(C)C(=O)NC(Sc1ncccn1)C(Cl)(Cl)Cl (stereo unspecified)	inactive: -1.78%
Clc1n[nH]nc1-c1nn[nH][15n]1	inactive: 6.35%
CC1(CBr)Cn2c(nc3ccccc3c2=O)S1 (stereo unspecified)	inactive: -3.76%
CN(C(=O)Cc1ccc(Cl)c(Cl)c1)[C@@H]1CCCC[C@H]1N1CCCC1	inactive: 2.86%
CC(C)/C=N\N=C(\N)N[N+](=O)[O-]	inactive: -5.57%
Cc1ccc(C(=O)OC2CN3CCC2CC3)cc1 (stereo unspecified)	inactive: 1.62%
CC1CCC(C(C)C)C(OP(=O)(Nc2ccccn2)c2ccccc2)C1 (stereo unspecified)	inactive: -4.94%
Cc1nn(-c2ccccc2)c2c1P(=O)(N1CCOCC1)N(C)C(c1ccccc1)=N2 (stereo unspecified)	inactive: -1.18%
CCCC1OP(=O)(Nc2ccccc2)OCC1CC (stereo unspecified)	inactive: 8.21%
O=C(/C=C/c1ccccc1)OC1CN2CCC1CC2 (stereo unspecified)	inactive: 3.34%
CN(C)C1(CNC(=O)c2ccc(S(C)(=O)=O)cc2)CCCCC1	inactive: -1.32%
O=P1(Nc2ncccn2)COc2ccccc2OC1	inactive: 1.35%
Cc1ccc(OCC(=O)OC2CN3CCC2CC3)cc1 (stereo unspecified)	inactive: 2.4%
O=[As](O)(c1cccs1)c1cccs1	inactive: 2.27%
NS(=O)(=O)c1cccc(NC(=O)COC(=O)C(O)(c2ccccc2)c2ccccc2)c1	inactive: -1.82%
O=P1(Nc2ccc(Br)cn2)COc2ccccc2OC1	inactive: -1.42%
Nc1cccc([As](=O)(O)c2ccccc2)c1	inactive: -1.96%
CC1CCNP(=O)(N(CCCl)CCCl)O1 (stereo unspecified)	inactive: -1.82%
Cc1cc(SC(NC(=O)c2ccccc2)C(Cl)(Cl)Cl)nc(C(C)C)n1 (stereo unspecified)	inactive: 1.36%
CCCCOc1ccc(C(=O)NCC2(N3CCCCC3)CCCCC2)cc1OC	inactive: -0.277%
CCOC(=O)Nc1cccc([As](=O)(O)O)c1	inactive: -1.3%
O=[N+]([O-])c1ccc(Nc2ccc(Oc3ccc([N+](=O)[O-])cc3[N+](=O)[O-])cc2)c([N+](=O)[O-])c1	inactive: -1.8%
Cc1cc(SC(NC=O)C(Cl)(Cl)Cl)ncn1 (stereo unspecified)	inactive: 1.44%
O=P(Nc1ccccn1)(c1cccc2ccccc12)c1cccc2ccccc12	inactive: -1.09%

Structure (SMILES)	activity change, negative = inhibition
COP1(=S)c2c(C)nn(CCC#N)c2N=C(c2ccc(F)cc2)N1C (stereo unspecified)	inactive: 2.22%
O=C(Nc1ccncc1[N+](=O)[O-])c1ccc([N+](=O)[O-])cc1[N+](=O)[O-]	inactive: 3.18%
O=C(COc1ccccc1)OC1CN2CCC1CC2 (stereo unspecified)	inactive: 6.34%
CCOC(=O)c1ccc(NC(=O)C(C)(CCl)SC)cc1 (stereo unspecified)	inactive: 2.98%
O=C(OC1CN2CCC1CC2)c1cccc([N+](=O)[O-])c1 (stereo unspecified)	inactive: 3.02%
CCC(C)N(CC(C)C)C(=S)SC(NC(C)=O)C(Cl)(Cl)Cl (stereo unspecified)	inactive: -1.23%
Cc1cc(=O)[nH]c(N[N+](=O)[O-])n1	inactive: 3.55%
O=C(OC1CN2CCC1CC2)C12CC3CC(CC(C3)C1)C2 (stereo unspecified)	inactive: 1.66%
Cc1c2c(nc3ccccc13)SC(C(Cl)Cl)C2 (stereo unspecified)	inactive: -1.95%
COc1cc(I)ccc1[As](=O)(O)O	inactive: -7.49%
COc1ccc2nc(NP(=O)(c3ccccc3)c3ccccc3)sc2c1	inactive: -2.07%
O=P1(N(CCCl)CCCl)OCCCN1CCCl (stereo unspecified)	inactive: 5.16%
O=P1(N(CCCl)CCCl)Nc2ccccc2N1	inactive: 3.28%
COc1ccc(N/C(=N/P(=O)(N2CCOCC2)N2CCOCC2)N2CCOCC2)cc1	inactive: -2.05%
O=[N+]([O-])c1cc(Oc2ccc([N+](=O)[O-])cc2C(F)(F)F)cc([N+](=O)[O-])c1	inactive: -12.6%
O=[N+]([O-])c1ccc(-c2cc([N+](=O)[O-])c(O)c([N+](=O)[O-])c2)cc1	inactive: 6.25%
COc1cc(C(=O)NCC2(N3CCOCC3)CCCCC2)ccc1OCC(C)C	inactive: -1.6%
C[As](=O)(O)c1cccc(C(=O)O)c1	inactive: 30.5%
O=[As](O)(c1ccc(O)cc1)c1ccccc1O	inactive: 0.969%
Cc1ccc2nc3c(c(C)c2c1)CC(C(Cl)Cl)S3 (stereo unspecified)	inactive: -3.88%
Cc1ccc(OP(=O)(Nc2ccc([N+](=O)[O-])cn2)Oc2ccc(C)cc2)cc1	inactive: -3.56%
COC(=O)C1(C)COP(=O)(N2CCCCCC2)OC1 (stereo unspecified)	inactive: 0.909%
CC(C)c1ccc(OP(=O)(Nc2ccccn2)Oc2ccccc2F)cc1 (stereo unspecified)	inactive: -0.909%
ClCCSc1nnc(-c2cccnc2)o1	inactive: 2.77%
O=[N+]([O-])c1cc([N+](=O)[O-])c(-c2ccn[nH]2)s1	inactive: -7.07%
CC(C)NC(=O)NP(=O)(Oc1ccccc1)Oc1ccccc1	inactive: 0.395%

Structure (SMILES)	activity change, negative = inhibition
CCN(CC)C(=S)SC(NC=O)C(Cl)(Cl)Cl (stereo unspecified)	inactive: -0.186%
O=C(OC1CN2CCC1CC2)c1cccc2[nH]cnc12 (stereo unspecified)	inactive: 1.66%
CCCC1OP(N)(=O)OCC1CC (stereo unspecified)	inactive: 0.995%
CC(=O)Nc1ccc([As](=O)(O)O)cc1	inactive: -3.28%
O=C(O)c1ccccc1[As](=O)(O)O	inactive: -97%
O=P(Nc1nc2ccc(Cl)cc2s1)(c1ccccc1)c1ccccc1	inactive: -2.39%
CN(C(=O)Cc1ccc(Cl)c(Cl)c1)[C@H]1CCCC[C@@H]1N1CCCC1	inactive: -0.0262%
Cc1ccc(NP(=O)(Oc2ccccc2F)Oc2ccccc2F)nc1	inactive: 4.67%
Cc1cc(SC(NC(=O)c2ccc(F)cc2)C(Cl)(Cl)Cl)ncn1 (stereo unspecified)	inactive: 0.0814%
CCOP(=O)(Nc1ccccc1)OCC	inactive: -2.04%
CCN(N=Nc1nonc1N)c1nonc1N	inactive: -6.15%
Nc1cccc2ccc([As](=O)(O)O)cc12	inactive: 11.9%
NC(=O)c1cc([N+](=O)[O-])cc([N+](=O)[O-])c1N	inactive: -0.14%
Cc1ccc(N/C(=N/P(=O)(N2CCOCC2)N2CCOCC2)N2CCOCC2)cc1	inactive: -1.91%
CN(C(=O)Cc1ccc(Cl)c(Cl)c1)[C@H]1CCCC[C@H]1N1CCCC1	inactive: -4.17%
Cc1ccc(OP(=O)(Nc2nccs2)Oc2ccc(C)cc2)cc1	inactive: -2.52%
COc1ccccc1OP(=O)(Nc1ccc(C)cn1)Oc1ccccc1OC	inactive: 11.2%
CN1CCCC(OC(=O)C(c2ccccc2)c2ccccc2)C1 (stereo unspecified)	inactive: -2.1%
Clc1ccc(Cl)c(NC2=NCC(CBr)S2)c1 (stereo unspecified)	inactive: 0.39%
Nc1cc(N)c2nonc2c1[N+](=O)[O-]	inactive: -3.09%
CC(C)CC(=O)NC(Sc1ccc(Cl)cc1)C(Cl)(Cl)Cl (stereo unspecified)	inactive: -1.42%
O=C(NC(Sc1ccncn1)C(Cl)(Cl)Cl)c1ccccc1 (stereo unspecified)	inactive: 6.01%
Oc1ccccc1CNc1ccccn1	inactive: 4.17%
